For one compound, Ki results are on record in ChEMBL document CHEMBL1132575 (J Med Chem, 1999).

By UniProt entry, the sequences of proteins in these tests, tags left out.
UniProt P28222, whole entry: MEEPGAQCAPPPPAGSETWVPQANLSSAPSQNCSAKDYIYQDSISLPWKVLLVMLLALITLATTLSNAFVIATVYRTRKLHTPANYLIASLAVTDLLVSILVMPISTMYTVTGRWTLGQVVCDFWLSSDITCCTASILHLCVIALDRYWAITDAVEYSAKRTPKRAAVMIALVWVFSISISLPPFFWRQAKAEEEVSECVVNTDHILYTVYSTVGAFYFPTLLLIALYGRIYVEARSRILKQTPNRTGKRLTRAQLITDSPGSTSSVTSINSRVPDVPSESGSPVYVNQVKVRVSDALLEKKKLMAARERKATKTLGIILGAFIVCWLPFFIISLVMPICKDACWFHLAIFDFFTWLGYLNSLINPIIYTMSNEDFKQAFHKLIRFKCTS

The assay has as its target 5-hydroxytryptamine receptor 1B (Homo sapiens, UniProt P28222). Briefly: In vitro receptor binding affinity for cloned human 5-hydroxytryptamine 1B receptor.

Broadly, the Ki is a measure of affinity in units of concentration, obtained from inhibition or displacement. A low value points to higher affinity. `CN[C@@H]1CCc2[nH]c3ccc(C(N)=O)cc3c2C1` [FROVATRIPTAN] returned an inhibitory constant (Ki) of 10.3 nM.
